Biological target: Aromatase (Homo sapiens, UniProt P11511)

By UniProt entry, the sequences of proteins in these tests, tags left out. Where a name states a change or a piece, a line headed by the entry shows the natural chain unless it says otherwise.
UniProt P11511: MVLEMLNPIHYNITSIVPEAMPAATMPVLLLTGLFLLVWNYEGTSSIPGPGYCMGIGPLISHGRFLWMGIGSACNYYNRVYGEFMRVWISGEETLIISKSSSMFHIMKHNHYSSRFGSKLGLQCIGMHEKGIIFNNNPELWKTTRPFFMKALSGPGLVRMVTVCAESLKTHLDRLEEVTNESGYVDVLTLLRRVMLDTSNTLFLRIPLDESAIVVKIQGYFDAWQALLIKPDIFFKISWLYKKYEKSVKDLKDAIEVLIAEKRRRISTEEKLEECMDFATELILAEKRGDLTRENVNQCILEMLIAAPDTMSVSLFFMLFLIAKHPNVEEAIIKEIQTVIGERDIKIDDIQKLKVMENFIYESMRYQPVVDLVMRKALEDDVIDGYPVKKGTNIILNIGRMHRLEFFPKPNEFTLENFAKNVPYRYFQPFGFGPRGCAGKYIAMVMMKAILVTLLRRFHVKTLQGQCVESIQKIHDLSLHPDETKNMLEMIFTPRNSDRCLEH

Row | SMILES | IC50 [µM]
1 | CCC[C@]1(c2ccncc2)CCC(=O)NC1=O | 6
2 | CCCCN1C(=O)CC[C@](CC)(c2ccncc2)C1=O | 40
3 | CCCC[C@]1(c2ccncc2)CCC(=O)NC1=O | 4
4 | CCCCCCCCCCN1C(=O)CC[C@](CC)(c2ccncc2)C1=O | 10

Source: ChEMBL document CHEMBL1125058 (J Med Chem, 1990)
